Test results as given in ChEMBL document CHEMBL4392832, “Surveying heterocycles as amide bioisosteres within a series of mGlu7 NAMs: Discovery of VU6019278” (Bioorg Med Chem Lett, 2019).

Chains of the proteins cited; added tags and fusions are not shown.
UniProt P35400, whole entry: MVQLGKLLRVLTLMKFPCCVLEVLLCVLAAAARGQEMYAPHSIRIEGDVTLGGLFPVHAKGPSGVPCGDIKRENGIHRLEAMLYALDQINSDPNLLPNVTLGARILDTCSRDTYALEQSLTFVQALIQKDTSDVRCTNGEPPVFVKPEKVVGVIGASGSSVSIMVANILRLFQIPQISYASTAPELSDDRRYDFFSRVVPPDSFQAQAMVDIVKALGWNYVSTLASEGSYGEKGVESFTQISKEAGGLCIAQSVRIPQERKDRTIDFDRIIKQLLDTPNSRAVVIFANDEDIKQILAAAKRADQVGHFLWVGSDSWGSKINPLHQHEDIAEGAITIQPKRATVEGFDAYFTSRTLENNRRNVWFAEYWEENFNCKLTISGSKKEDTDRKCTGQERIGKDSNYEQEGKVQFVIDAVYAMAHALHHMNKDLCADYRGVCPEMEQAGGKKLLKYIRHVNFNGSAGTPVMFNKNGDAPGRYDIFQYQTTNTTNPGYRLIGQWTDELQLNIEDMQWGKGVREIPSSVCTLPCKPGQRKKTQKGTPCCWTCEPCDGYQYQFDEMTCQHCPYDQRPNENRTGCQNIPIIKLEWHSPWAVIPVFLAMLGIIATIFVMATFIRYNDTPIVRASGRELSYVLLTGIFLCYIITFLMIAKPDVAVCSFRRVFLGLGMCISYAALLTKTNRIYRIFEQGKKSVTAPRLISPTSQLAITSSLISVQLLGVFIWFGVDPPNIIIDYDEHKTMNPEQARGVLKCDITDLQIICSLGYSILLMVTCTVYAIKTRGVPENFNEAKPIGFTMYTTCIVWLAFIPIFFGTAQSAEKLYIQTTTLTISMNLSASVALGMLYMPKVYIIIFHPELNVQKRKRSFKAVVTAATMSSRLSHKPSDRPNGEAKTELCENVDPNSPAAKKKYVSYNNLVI

Target: Metabotropic glutamate receptor 7 (Rattus norvegicus, UniProt P35400)
Assay: Negative allosteric modulation of rat mGlu7 receptor expressed in HEK cells co-expressing Galpha15 assessed as reduction in calcium mobilization incubated for 142 secs prior to glutamate addition for 120 secs followed by L-AP4 addition and measured after 40 secs by Fluo-4 AM dye based fluorescence assay
Assay type: functional, cell-based

- pIC50: 5.69
Structure (SMILES): COc1ccc(-c2nnc(-c3cc(OC(F)(F)F)ccc3-n3cccn3)o2)cc1OC

pIC50: −log10 of the molar value.
